The chains behind the UniProt entries cited, without tags or fusion partners. Residues count along the entry.
UniProt P42345, 1362-2549 limits assumed: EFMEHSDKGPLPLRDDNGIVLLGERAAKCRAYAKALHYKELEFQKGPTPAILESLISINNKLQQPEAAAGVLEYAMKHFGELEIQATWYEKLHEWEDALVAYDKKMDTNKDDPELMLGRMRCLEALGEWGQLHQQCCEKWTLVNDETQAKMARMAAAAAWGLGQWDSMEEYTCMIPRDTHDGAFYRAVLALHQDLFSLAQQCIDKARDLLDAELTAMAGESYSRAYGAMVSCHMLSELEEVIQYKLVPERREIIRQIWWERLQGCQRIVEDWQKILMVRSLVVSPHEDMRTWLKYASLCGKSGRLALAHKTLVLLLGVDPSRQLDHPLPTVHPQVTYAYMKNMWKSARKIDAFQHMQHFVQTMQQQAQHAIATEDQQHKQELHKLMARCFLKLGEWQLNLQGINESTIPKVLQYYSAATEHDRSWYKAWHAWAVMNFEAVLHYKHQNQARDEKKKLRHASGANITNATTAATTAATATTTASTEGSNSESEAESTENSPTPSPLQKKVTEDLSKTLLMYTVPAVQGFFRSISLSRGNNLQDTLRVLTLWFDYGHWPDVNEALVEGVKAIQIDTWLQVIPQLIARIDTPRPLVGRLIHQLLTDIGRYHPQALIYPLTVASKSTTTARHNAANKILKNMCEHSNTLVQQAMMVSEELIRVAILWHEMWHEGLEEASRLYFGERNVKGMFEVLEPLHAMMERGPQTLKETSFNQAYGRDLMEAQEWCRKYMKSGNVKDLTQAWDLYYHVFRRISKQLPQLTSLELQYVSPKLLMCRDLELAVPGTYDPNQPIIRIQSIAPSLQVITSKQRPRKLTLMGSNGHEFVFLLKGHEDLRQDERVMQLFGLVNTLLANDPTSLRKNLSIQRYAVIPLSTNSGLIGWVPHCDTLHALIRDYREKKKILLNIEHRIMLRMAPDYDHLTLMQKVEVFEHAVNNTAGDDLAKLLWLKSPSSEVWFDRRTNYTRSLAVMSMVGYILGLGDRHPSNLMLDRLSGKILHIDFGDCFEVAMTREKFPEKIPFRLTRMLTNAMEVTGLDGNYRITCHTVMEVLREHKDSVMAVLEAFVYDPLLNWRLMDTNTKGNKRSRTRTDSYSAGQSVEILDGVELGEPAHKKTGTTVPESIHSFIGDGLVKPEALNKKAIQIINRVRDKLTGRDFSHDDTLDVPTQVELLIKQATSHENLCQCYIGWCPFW
UniProt P42336, whole entry: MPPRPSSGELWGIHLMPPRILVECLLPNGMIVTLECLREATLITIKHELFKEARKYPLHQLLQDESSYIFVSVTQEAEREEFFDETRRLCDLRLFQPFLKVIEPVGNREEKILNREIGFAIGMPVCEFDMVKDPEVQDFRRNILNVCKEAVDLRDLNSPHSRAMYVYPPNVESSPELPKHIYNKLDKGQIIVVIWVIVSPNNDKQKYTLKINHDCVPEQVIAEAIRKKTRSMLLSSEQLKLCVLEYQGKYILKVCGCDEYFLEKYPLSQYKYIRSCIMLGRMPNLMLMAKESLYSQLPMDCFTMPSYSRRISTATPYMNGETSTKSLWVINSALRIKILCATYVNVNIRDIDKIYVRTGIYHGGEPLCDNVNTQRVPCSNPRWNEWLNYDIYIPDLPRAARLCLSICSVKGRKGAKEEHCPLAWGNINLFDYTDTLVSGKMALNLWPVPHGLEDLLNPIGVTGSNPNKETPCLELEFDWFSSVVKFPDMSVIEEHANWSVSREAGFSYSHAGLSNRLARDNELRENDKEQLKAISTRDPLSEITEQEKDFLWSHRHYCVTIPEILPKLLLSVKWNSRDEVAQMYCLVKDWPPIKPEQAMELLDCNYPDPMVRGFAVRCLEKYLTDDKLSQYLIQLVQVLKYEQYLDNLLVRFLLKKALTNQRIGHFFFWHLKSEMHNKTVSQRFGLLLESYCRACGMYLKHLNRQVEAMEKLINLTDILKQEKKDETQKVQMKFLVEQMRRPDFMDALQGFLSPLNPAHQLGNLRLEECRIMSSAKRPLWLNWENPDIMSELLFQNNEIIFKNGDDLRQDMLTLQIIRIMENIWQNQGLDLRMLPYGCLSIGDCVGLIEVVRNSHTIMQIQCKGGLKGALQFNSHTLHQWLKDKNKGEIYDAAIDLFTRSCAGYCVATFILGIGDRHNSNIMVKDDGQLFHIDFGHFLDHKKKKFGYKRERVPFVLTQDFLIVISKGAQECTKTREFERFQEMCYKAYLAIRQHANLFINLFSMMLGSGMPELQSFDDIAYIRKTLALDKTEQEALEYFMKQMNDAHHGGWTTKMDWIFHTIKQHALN
UniProt P27986, whole entry partner: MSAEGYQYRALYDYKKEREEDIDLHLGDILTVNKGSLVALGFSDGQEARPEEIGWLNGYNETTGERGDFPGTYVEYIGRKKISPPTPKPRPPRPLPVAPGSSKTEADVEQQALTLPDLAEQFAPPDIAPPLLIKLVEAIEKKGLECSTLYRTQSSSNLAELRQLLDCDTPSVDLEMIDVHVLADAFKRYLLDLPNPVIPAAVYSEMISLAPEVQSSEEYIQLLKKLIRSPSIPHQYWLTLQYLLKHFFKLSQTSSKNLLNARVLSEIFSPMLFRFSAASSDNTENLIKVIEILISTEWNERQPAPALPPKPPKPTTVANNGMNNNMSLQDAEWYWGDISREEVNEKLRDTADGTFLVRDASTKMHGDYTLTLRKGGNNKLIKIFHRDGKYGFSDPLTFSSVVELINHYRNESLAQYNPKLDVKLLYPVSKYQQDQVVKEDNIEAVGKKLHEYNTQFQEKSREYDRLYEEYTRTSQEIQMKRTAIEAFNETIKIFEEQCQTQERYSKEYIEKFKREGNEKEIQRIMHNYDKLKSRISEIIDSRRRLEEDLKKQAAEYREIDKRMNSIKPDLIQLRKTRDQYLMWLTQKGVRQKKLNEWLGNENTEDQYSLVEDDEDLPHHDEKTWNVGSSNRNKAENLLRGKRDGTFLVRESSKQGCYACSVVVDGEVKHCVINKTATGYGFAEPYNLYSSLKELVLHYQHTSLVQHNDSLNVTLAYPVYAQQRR

In US20090076009A1, “THIAZOLE DERIVATIVES AND THEIR USE AS ANTI-TUMOUR AGENTS” (priority 2006, published 2009):

How the values were obtained:
[1] = system: phosphorylation of Serine 473 in Akt in MDA-MB-468 human breast adenocarcinoma cell line; test: In Vitro Phospho-Ser473 Akt Assay; assay type: cell-based; conditions: read-out: IC50, inhibition of phosphorylation of Serine 473 in Akt; Test (c), MDA-MB-468 cells
[2] = molecular target: mTOR PI kinase-related kinase (Homo sapiens, UniProt P42345); test: In Vitro mTOR PI kinase-related Kinase Assay (AlphaScreen); assay type: biochemical; conditions: read-out: IC50 versus mTOR PI kinase-related kinase; Test (b)
p110α Type Ia human PI3K = p110α Type Ia human PI3K (Homo sapiens, UniProt P42336); test: In Vitro PI3K Enzyme Assay (AlphaScreen); assay type: biochemical; conditions: read-out: IC50 versus p110α Type Ia human PI3K; Test (a)

CC(=O)Nc1ncc(-c2cnc(Cl)c(NS(C)(=O)=O)c2)s1
IC50 [1]: 1000 nM | IC50 [2]: 10 nM | IC50 (p110α Type Ia human PI3K): 10 nM
